The entries are a selection whose mix differs from that of the whole data set. Entries with a potency or affinity are not part of this list. The source made the active and inactive calls. The rule behind the calls is not given here.

A short description of this test: A549 cell toxicity, dose response, cytotoxicity control, plate reader, cherry-pick samples (AID 687028).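 Note: cells incubated with compound for three days before reading.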 As to conditions: at 19.5 µM (top of the series).
On to `CCOC(=O)c1ccc(NP(C)(=O)Oc2ccc(Cl)cc2)cc1` (stereo unspecified), for which the activity change, negative = toxicity was inactive: -2.72%.

The record behind these values is PubChem BioAssay AID687028 (Broad Institute, 2013).
